# Assay results as given in PubChem BioAssay AID927 (National Center for Advancing Translational Sciences (NCATS), 2007).
# The chains behind the UniProt entries cited, without tags or fusion partners.
# UniProt O75604, whole entry: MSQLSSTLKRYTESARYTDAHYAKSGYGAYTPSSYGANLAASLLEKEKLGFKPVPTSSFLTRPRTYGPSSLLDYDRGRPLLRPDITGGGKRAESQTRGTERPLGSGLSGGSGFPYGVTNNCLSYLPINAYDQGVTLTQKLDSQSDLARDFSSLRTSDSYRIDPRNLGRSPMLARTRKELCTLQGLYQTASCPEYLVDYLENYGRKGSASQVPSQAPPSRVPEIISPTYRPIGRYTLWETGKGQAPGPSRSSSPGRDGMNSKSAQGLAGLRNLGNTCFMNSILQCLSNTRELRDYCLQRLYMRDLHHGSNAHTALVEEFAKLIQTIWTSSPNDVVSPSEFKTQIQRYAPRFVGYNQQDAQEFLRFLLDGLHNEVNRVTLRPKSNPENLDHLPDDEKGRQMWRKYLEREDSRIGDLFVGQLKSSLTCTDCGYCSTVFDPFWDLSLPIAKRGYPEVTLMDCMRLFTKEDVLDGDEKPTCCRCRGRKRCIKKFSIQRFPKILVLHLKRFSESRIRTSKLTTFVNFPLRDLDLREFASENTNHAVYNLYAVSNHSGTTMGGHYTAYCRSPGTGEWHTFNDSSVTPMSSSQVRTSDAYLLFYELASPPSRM
# Only a part is listed here, and it is no random draw. Activity calls are given as the source filed them. Calls follow the shape of the dose curve; as a rule, active = well fitted inhibition curve with a large enough effect; inconclusive = small, poorly fitted or top-dose-only effect; inactive = no such curve, though single readings can be large or run the other way.
# Target: Ubiquitin carboxyl-terminal hydrolase 2 (Homo sapiens) (UniProt O75604)
# Test: qHTS Assay for Inhibitors of Ubiquitin-specific Protease USP2a;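 also: plate controls were DMSO for no effect and NEM full inhibition control for full effect; nearly all actives have a fitted effect of over 60% in size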
# Settings: USP2a enzymatic assay; at 38.3 µM (top of the series)
# From the text: NIH Molecular Libraries Screening Centers Network [MLSCN]
# NIH Chemical Genomics Center [NCGC]
# PI Name: Nicholson, Ben. Progenra Inc, Malvern, PA
# Homeostasis of cellular proteins is maintained through a combination of synthesis and degradation. The pathway that accounts for the majority of protein degradation is the ubiquitin-proteasomal pathway. Ubiquitin (Ub) is highly conserved in all cells and the generation of a multi-Ub chain typically targets proteins for degradation by the proteasome. However, ubiquitination is highly reversible and dynamic. Deubiquitination, the reverse process, is catalyzed through the action of enzymes referred to as isopeptidases or deubiquitinating enzymes (DUBs). […]
# The reporter enzyme chosen is phospholipase A2 (PLA2), which has an absolute requirement for a free amino terminus. […] Thus, this coupled assay gives a fluorescent read-out, which is generated through the cleavage of the PLA2 reporter enzyme. […]
# The assay buffer, prepared fresh at the day of the assay, contains 20mM Tris-HCl pH 8.0, 2mM CaCl2, 2mM beta-Mercaptoethanol, 0.1% DMSO. […] Plates were read immediately (0 Hour) on an Envision (Perkin Elmer) plate reader using the following wavelengths Ex 460nm /Em 535nm. Then, the assay plates were incubated for 2.5 hours and read again on the Envision using the same settings […]
row,Structure (SMILES),"activity change, negative = inhibition"
1,CN(CCCl)CCCl,inactive: 15%
